The subject of the test is CHO-K1 cells. Kind of test: PAP cell viability assay: SpyC_PAP conjugated to CPP_SpyT, resazurin reduction. It counts as cell-based. To be noted: all concentrations tested up to 30 μM; FIG. 4A. On the procedure:
With the exception of SpyC PAS proteins, conjugations were set up at a SpyCatcher:SpyTag ratio of 1:1.25, with a 40 μM final concentration for the SpyCatcher moiety. SpyC proteins and SpyTag peptides were incubated for 2 h at 22° C. with gentle mixing, and then left at 4° C. overnight. Conjugation efficiencies were analyzed on 4-16% SDS-PAGE gels stained with Gel Code Blue Reagent (Thermo Fisher Scientific). SpyC_PAS proteins were conjugated with SpyTag peptides at ratio 1:1.1, mixed and incubated at room temperature for 30 mins before being stored overnight at 4° C.
All assays followed manufacturer's instructions.
SpyC-PAP/CPP-SpyT complex IC50s were ranked according to potency to determine impact of changes to primary CPP sequence. […] SpyC_BLA/CPP-SpyT complex median cell fluorescence at 4 μM concentration was ranked according to intensity to determine impact of changes to primary CPP sequence. […]
For the first readout of functional activity we chose the proapoptotic peptide PAP (SEQ ID NO:61; Ellerby et al 1999, Nat Med, 5, 1032-1038) as a functional cargo and expressed it recombinantly, fused to SpyCatcher (SEQ ID NO:83) (abbreviated as “SpyC_PAP” or “SpyC-PAP”; SEQ ID NO:62) to enable subsequent conjugation with synthetic CPP-SpyTag fusion proteins. […]
(In general: Resazurin is reduced to fluorescent resorufin, in cell work by metabolically active cells.)

One molecule from US20210087238A1, “CELL PENETRATING PEPTIDES AND RELATED COMPOSITIONS AND METHODS” (Phylogica Limited, priority 2017, published 2021) can be followed below.

B1: SpyC_PAP: SpyCatcher-proapoptotic peptide fusion protein (protein)
chain: MGHHHHHHGATLEVLFQGPGGSDSATHIKFSKRDEDGKELAGATMELRDSSGKTISTWISDGQVKDFYLYPGKYTFVETAAPDGYEVATAITFTVNEQGQVTVNGKATKGGSGTGATSGKLAKLAKKLAKLA
modifications: Amino acid sequence of a SpyCatcher-proapoptotic peptide fusion protein (SC-PAP)
In the case of B1, the “effect on CHO-K1 cell viability” value is recorded as “no effect”.
